According to ChEMBL document CHEMBL4680210, “Discovery of 1,6-naphthyridinone-based MET kinase inhibitor bearing quinoline moiety as promising antitumor drug candidate” (Eur J Med Chem, 2020):
pIC50: −log10 of the molar value.

Amino acid sequences for entries named in this document (tags omitted). A change or cut given only in a name is not applied to a line headed by its entry.
UniProt P08581: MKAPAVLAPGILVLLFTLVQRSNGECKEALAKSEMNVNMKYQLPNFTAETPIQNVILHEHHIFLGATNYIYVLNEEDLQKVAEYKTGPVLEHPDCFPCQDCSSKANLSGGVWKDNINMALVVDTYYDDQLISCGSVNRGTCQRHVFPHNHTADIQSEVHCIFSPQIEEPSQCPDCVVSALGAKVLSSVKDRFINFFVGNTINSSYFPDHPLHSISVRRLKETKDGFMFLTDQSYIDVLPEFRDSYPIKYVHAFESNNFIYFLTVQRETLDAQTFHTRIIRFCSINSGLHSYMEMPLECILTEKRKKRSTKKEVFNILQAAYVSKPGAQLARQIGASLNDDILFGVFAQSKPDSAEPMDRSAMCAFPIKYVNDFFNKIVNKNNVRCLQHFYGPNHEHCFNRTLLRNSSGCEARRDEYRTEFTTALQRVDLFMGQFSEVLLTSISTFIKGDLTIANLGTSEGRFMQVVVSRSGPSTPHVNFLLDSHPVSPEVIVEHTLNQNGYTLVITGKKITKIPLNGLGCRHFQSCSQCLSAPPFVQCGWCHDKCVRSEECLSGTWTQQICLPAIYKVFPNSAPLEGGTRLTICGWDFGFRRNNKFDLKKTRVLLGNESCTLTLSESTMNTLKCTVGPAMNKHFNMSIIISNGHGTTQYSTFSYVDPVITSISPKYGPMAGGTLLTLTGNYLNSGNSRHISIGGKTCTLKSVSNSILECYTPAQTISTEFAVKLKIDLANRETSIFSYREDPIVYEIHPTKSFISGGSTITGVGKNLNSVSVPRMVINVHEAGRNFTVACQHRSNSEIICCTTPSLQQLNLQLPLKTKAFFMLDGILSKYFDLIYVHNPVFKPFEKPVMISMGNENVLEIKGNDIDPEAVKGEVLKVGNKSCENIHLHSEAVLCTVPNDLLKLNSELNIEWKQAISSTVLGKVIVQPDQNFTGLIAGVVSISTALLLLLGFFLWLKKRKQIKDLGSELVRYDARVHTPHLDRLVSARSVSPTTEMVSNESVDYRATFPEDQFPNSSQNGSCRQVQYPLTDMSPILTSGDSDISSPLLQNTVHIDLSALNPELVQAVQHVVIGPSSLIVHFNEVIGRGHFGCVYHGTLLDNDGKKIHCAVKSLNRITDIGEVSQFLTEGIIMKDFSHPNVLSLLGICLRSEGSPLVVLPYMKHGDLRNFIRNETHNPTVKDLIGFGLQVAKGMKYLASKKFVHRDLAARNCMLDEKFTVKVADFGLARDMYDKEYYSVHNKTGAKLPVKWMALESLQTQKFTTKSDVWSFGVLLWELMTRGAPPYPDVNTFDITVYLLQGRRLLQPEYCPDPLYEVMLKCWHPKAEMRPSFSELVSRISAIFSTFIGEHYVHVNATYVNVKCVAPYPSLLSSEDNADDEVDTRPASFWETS

Biological target: Hepatocyte growth factor receptor (Homo sapiens, UniProt P08581)

In the case of `O=c1c(-c2ccc(F)cc2)c[nH]c2ccnc(Nc3ccc(Oc4ccnc5cc(OCCO)ccc45)c(F)c3)c12`, the pIC50 was 8.17.
